# Source: US8598202B2, “Aryl-hydroxyethylamino-pyrimidines and triazines as modulators of fatty acid amide hydrolase” (Janssen Pharmaceutica NV, priority 2008, dated 2013)
# Chains of the proteins cited; added tags and fusions are not shown.
# UniProt P97612, whole entry: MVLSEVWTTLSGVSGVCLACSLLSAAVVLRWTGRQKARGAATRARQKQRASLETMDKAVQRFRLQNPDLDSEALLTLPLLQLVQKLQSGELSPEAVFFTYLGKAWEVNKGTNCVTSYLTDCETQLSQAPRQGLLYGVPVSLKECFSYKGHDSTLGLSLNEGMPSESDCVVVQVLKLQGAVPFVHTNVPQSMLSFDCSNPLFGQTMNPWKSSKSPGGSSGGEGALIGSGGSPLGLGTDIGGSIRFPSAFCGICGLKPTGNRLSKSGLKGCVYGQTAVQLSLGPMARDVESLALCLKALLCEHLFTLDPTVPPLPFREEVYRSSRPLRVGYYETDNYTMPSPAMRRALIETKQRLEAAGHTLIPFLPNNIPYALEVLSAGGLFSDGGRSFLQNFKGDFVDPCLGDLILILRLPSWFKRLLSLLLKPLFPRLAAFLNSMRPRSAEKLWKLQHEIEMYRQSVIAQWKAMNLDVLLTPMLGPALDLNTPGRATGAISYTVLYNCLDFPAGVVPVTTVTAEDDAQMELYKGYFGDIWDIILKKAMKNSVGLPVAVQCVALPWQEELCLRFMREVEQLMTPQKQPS
# Molecular target: Rat FAAH-1 (Rattus norvegicus, UniProt P97612)
# Assay: Assay Method 2: rat FAAH-1 assay, 3H-anandamide hydrolysis in homogenate of SK-N-MC cells transfected with rat FAAH
# Details: Assay 2 IC50 (μM)
row,SMILES,IC50
1,"OC(CNc1cc(-c2ccc(C(F)(F)F)cc2)ncn1)c1ccccc1 (stereo not drawn) [Example 4, 1-Phenyl-2-([6-[4-(trifluoromethyl)phenyl]pyrimidin-4-yl]amino)ethanol trifluoroacetic acid salt]",0.1 µM
2,"O[C@@H](CNc1cc(-c2ccc(C(F)(F)F)cc2)ncn1)c1ccccc1 [Example 15, (1R)-1-Phenyl-2-({6-[4-(trifluoromethyl)phenyl]pyrimidin-4-yl}amino)ethanol]",0.068 µM
3,"O[C@@H](CNc1cc(-c2ccc(Cl)c(C(F)(F)F)c2)ncn1)c1ccccc1 [Example 28, (1R)-2-({6-[4-Chloro-3-(trifluoromethyl)phenyl]pyrimidin-4-yl}amino)-1-phenylethanol trifluoroacetic acid salt]",0.064 µM
4,"O[C@@H](CNc1cc(-c2ccc(OC(F)(F)F)c(F)c2)ncn1)c1ccccc1 [Example 29, (1R)-2-({6-[3-Fluoro-4-(trifluoromethoxy)phenyl]pyrimidin-4-yl}amino)-1-phenylethanol trifluoroacetic acid salt]",0.026 µM
5,"CC(=O)c1ccc(-c2cc(NC[C@H](O)c3ccccc3)ncn2)cc1F [Example 51, 1-[2-Fluoro-4-(6-{[(2R)-2-hydroxy-2-phenylethyl]amino}pyrimidin-4-yl)phenyl]ethanone trifluoroacetic acid salt]",0.007 µM
6,"OC(CNc1cc(-c2ccc(C(F)(F)F)c(Cl)c2)ncn1)c1ccc(F)c(F)c1 (stereo not drawn) [Example 132, 2-[6-(3-Chloro-4-trifluoromethyl-phenyl)-pyrimidin-4-ylamino]-1-(3,4-difluoro-phenyl)-ethanol trifluoroacetic acid salt]",0.015 µM
7,"O[C@H](CNc1cc(-c2ccc(C(F)(F)F)c(Cl)c2)ncn1)c1ccc(F)c(F)c1 [Example 143, (1S)-2-[6-(3-Chloro-4-trifluoromethyl-phenyl)-Pyrimidin-4-ylamino]-1-(3,4-difluoro-phenyl)-ethanol]",4 µM
8,"O[C@@H](CNc1cc(-c2ccc(C(F)(F)F)c(Cl)c2)ncn1)c1ccc(F)c(F)c1 [Example 144, (1R)-2-[6-(3-Chloro-4-trifluoromethyl-phenyl)-pyrimidin-4-ylamino]-1-(3,4-difluoro-phenyl)-ethanol]",0.003 µM
9,"O[C@@H](CNc1cc(-c2ccc(OCC(F)(F)F)c(F)c2)ncn1)c1ccccc1 [Example 178, (1R)-2-({6-[3-Fluoro-4-(2,2,2-trifluoroethoxy)phenyl]pyrimidin-4-yl}amino)-1-phenylethanol trifluoroacetic acid salt]",0.07 µM

# Counter-ions that a name gives are not always drawn.
